# According to ChEMBL document CHEMBL1777702, “N⁴-[Alkyl-(hydroxyphosphono)phosphonate]-cytidine-new drugs covalently linking antimetabolites (5-FdU, araU or AZT) with bone-targeting bisphosphonates (alendronate or pamidronate)” (Bioorg Med Chem, 2011):
# Tested on: RAW264.7
# Assay: Selectivity ratio of IC50 for mouse RAW264.7 cells to IC50 for mouse LLC cells
structure (smiles),measurement,value
NCCCC(O)(P(=O)([O-])O)P(=O)(O)O.O.O.O.[Na+],Ratio IC50,11
